Experimental data reported in patent EP0336356A2, “Derivatives of tryptophan as CCK antagonists” (ABBOTT LABORATORIES, priority 1988, dated 1989).

Amino acid sequences for entries named in this document (tags omitted).
UniProt Q63931, whole entry: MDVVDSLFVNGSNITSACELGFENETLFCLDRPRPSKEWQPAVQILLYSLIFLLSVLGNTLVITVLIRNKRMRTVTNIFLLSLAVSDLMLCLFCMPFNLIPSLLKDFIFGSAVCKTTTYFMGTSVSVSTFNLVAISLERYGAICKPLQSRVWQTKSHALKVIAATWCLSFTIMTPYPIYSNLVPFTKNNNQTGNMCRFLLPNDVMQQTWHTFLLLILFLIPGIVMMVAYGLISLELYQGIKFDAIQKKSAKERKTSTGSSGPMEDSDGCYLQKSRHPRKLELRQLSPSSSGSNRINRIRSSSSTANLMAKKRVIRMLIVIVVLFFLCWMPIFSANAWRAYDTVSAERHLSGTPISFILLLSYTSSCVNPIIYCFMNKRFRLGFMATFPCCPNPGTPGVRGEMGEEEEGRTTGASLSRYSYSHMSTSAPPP

Molecular target: T1, CCK receptors (Cavia porcellus, UniProt Q63931)
T1 construct: cortex and pancreas were removed and rinsed with ice-cold saline; from tissue; host or cells: guinea pig pancreas membranes
Experiment: [125I]BH-CCK8 radioligand binding, guinea pig pancreatic membranes
Conditions: 37°C for 30 min, read-out: IC₅₀ (nM) [¹²⁵I]-BH-CCK₈ Pancreas

IC50 [nM]	SMILES
67	CCCCCN(CCCCC)C(=O)C(Cc1c[nH]c2ccc(OCc3ccccc3)cc12)NC(=O)c1cnc2ccccc2c1 (racemic) [Example 53, N-(3′-Quinolylcarbonyl)-R,S-5-benzyloxytryptophan-di-n-pentylamide]
350	O=C(N[C@H](Cc1c[nH]c2ccccc12)C(=O)NCc1ccccc1)c1cnc2ccccc2c1 [Example 7, N-(3′-Quinolylcarbonyl)-R-Tryptophan-benzylamide]
